# Data from BindingDB's records for patent US12110278 (Yale University, 2024).
# By UniProt entry, the sequences of proteins in these tests, tags left out. Residues count along the entry.
# UniProt O60674, 536-812 W659A/W777A/F794H: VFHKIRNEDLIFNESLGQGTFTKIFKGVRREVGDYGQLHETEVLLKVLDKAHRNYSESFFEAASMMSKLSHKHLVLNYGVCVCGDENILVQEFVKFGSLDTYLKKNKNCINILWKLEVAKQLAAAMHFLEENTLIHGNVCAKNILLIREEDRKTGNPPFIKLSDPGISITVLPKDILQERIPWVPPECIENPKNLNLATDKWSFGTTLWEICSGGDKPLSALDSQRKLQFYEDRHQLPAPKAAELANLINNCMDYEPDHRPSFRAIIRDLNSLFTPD
# Molecular target: T1, Tyrosine-protein kinase JAK2 [536-812,W659A,W777A,F794H] (Homo sapiens, UniProt O60674, W659A/W777A/F794H)
# T1 construct: 536-812
# Assay: Fluorescence Polarization (FP) Assay
compound,measurement,value
"COC(=O)COc1ccc(NC(=O)n2nc(Nc3ccc(S(N)(=O)=O)cc3)nc2N)cc1 [US12110278, Compound 8]",Kd,1.9 µM
